Measured values as given in ChEMBL document CHEMBL5579880, “Rational Design of a Novel 6H-Benzo[c]chromen Series as Selective PI3Kα Inhibitors” (J Med Chem, 2024).

Sequences of proteins named here, by UniProt entry; tags and fusion partners are left off. A change or cut given only in a name is not applied to a line headed by its entry.
UniProt P48736: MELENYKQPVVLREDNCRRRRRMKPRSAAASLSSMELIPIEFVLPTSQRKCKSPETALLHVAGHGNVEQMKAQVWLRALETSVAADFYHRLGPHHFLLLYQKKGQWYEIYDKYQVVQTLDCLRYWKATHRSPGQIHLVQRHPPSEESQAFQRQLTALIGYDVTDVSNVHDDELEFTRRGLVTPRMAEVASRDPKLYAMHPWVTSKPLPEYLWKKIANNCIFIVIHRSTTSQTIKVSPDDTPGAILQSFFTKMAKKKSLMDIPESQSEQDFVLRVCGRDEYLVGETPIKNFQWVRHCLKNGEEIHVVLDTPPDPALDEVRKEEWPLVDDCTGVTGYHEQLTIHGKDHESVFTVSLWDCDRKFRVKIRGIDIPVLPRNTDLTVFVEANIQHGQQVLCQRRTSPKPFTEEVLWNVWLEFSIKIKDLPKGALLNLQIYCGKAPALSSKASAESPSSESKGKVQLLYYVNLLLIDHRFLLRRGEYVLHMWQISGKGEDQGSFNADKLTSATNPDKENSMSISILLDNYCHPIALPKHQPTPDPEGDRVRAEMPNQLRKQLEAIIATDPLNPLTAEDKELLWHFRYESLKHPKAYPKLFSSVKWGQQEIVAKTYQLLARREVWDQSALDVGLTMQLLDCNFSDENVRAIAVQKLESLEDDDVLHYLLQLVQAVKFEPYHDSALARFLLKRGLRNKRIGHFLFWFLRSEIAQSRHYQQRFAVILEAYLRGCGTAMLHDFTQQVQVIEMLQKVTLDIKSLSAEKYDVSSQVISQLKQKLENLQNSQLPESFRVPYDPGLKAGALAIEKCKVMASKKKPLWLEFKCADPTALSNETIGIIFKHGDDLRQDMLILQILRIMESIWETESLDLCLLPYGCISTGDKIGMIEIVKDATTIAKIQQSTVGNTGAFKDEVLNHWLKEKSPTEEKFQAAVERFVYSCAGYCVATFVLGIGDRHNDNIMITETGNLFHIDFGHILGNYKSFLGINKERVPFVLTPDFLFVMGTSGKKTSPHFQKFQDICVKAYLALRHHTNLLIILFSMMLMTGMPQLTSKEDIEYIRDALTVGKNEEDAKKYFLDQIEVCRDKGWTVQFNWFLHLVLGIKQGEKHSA
UniProt P42338: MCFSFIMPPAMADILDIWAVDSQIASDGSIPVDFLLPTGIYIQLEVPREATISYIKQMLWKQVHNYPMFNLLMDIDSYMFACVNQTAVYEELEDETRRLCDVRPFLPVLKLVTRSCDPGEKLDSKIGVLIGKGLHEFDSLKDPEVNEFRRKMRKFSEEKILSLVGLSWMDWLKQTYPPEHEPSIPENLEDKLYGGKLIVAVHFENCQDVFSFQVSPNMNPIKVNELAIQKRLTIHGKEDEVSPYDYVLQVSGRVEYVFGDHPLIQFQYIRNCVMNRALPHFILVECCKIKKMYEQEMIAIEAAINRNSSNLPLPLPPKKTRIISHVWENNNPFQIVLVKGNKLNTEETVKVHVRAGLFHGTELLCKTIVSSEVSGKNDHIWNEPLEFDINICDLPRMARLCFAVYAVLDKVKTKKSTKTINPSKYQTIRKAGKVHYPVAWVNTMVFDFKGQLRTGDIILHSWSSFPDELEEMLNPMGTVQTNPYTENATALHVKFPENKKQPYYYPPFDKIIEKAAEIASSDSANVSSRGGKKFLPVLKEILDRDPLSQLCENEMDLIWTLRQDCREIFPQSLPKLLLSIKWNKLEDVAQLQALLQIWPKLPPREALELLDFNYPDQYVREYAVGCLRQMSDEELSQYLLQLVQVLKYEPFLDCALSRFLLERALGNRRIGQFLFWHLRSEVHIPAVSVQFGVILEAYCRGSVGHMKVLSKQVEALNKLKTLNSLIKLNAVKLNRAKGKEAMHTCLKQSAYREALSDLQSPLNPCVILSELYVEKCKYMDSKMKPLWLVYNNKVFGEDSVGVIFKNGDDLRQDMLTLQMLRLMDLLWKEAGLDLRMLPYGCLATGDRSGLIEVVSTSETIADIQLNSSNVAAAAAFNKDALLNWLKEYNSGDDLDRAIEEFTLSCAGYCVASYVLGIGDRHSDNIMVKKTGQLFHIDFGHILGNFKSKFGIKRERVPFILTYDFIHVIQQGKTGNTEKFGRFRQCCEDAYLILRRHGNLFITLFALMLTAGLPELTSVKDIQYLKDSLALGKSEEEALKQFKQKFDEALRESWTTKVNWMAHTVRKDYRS
UniProt P42336, whole entry: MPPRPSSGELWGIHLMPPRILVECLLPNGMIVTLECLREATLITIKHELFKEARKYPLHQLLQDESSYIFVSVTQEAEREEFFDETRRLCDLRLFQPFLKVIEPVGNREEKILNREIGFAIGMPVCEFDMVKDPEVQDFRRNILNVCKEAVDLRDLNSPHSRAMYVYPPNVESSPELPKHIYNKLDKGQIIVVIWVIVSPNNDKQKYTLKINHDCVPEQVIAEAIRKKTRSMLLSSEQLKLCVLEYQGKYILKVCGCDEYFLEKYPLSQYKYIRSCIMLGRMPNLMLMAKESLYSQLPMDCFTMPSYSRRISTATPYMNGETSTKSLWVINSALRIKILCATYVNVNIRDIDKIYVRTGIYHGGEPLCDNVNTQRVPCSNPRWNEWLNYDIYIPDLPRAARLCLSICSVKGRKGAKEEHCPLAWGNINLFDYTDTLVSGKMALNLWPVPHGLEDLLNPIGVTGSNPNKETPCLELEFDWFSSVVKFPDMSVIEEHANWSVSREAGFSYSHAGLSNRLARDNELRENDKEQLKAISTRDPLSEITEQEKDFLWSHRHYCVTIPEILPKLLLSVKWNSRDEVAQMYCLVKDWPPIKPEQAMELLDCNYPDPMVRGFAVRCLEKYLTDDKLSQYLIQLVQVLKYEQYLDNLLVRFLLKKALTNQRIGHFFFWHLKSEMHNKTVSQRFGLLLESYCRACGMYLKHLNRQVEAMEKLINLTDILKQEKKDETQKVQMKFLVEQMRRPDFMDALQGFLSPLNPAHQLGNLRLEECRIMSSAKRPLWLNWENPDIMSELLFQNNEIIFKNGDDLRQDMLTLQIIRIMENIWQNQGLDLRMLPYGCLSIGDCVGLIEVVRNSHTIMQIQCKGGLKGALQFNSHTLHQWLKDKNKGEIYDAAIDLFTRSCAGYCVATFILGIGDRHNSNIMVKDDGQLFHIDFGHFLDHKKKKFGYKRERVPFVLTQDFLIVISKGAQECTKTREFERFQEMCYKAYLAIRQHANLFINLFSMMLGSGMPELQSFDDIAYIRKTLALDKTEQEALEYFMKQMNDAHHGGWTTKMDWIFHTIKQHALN

How the values were obtained:
Conditions in all cases: dose 100.0 nM, time 60.0 min
[1] = biological target: Phosphatidylinositol 4,5-bisphosphate 3-kinase catalytic subunit gamma isoform (Homo sapiens, UniProt P48736)
[2] = biological target: T1, Phosphatidylinositol 4,5-bisphosphate 3-kinase catalytic subunit delta isoform (Homo sapiens) (UniProt O00329)
T1 sequence (whole entry): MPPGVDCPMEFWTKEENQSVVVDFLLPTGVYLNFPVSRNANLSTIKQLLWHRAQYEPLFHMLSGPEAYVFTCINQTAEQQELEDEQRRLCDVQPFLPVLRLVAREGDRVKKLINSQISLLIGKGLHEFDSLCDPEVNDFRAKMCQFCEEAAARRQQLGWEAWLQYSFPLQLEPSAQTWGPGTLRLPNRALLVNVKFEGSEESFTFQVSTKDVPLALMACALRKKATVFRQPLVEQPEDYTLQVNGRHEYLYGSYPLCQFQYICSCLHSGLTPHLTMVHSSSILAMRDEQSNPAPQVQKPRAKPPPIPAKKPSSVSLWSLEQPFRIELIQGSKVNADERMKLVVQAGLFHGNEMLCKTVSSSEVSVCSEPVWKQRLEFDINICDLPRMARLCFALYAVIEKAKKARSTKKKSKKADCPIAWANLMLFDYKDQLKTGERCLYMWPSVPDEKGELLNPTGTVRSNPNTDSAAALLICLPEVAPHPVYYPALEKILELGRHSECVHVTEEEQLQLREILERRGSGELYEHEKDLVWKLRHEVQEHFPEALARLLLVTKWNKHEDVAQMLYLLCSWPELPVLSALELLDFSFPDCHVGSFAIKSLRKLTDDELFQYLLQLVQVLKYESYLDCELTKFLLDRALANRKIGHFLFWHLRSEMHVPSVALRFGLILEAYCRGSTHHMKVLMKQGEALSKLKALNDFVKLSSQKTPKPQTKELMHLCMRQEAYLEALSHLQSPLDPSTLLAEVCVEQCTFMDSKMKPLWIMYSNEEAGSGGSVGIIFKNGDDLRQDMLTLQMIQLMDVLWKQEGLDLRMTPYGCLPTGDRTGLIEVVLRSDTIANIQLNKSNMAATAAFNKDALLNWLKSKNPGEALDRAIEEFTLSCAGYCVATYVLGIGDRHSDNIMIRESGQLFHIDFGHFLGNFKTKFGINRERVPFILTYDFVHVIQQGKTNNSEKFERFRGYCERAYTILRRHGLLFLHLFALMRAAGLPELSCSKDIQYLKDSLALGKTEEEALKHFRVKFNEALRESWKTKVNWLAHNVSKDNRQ

[3] = biological target: Phosphatidylinositol 4,5-bisphosphate 3-kinase catalytic subunit beta isoform (Homo sapiens, UniProt P42338)
[4] = biological target: Phosphatidylinositol 4,5-bisphosphate 3-kinase catalytic subunit alpha isoform (Homo sapiens) (UniProt P42336)

Row | inhibition [1] [%] | inhibition [2] [%] | inhibition [3] [%] | inhibition [4] [%] | SMILES
1 |  | 12.8 |  | 34.9 | NC(=O)COc1ccc2c(c1)OCc1ccc(-c3cc[nH]n3)cc1-2
2 |  | -4.9 |  | 45.8 | C[C@H](Oc1ccc2c(c1)OCc1ccc(-c3ccccn3)cc1-2)C(N)=O
3 | 18.4 | 23 |  |  | C[C@@H](Oc1ccc2c(c1)OCc1ccc(-c3cc[nH]n3)cc1-2)C(N)=O
4 | 27.3 | 20.4 | -3.5 |  | C[C@H](Oc1ccc2c(c1)OCc1ccc(-c3cc[nH]n3)cc1-2)C(N)=O

Second part, the molecule before the results:

Row | SMILES | inhibition [1] [%] | inhibition [2] [%] | inhibition [3] [%] | inhibition [4] [%]
5 | C[C@H](Oc1ccc2c(c1)OCc1ccc(-c3ncnn3C)cc1-2)C(N)=O | 10.6 | 27 |  | 
6 | C[C@H](Oc1ccc2c(c1)OCc1ccc(-c3cn[nH]c3)cc1-2)C(N)=O | 19.5 | 22.7 | -9.1 | 
7 | CC(C)n1nccc1-c1ccc2c(c1)-c1ccc(O[C@@H](C)C(N)=O)cc1OC2 | 31.9 | 3.6 |  | 24.8
8 | C[C@H](Oc1ccc2c(c1)OCc1ccc(-c3ncccn3)cc1-2)C(N)=O | 4 | 6 |  | 
9 | C[C@H](Oc1ccc2c(c1)OCc1ccc(-c3ccn(C)n3)cc1-2)C(N)=O | 18.3 | 11.1 |  | 45.8
10 | C[C@H](Oc1ccc2c(c1)OCc1ccc(-c3cccnc3)cc1-2)C(N)=O |  | 0.7 | -4.9 | 16.2
11 | C[C@H](Oc1ccc2c(c1)OCc1ccc(-c3ccncc3)cc1-2)C(N)=O | 17.9 | 38.4 |  | 
12 | C[C@H](Oc1ccc2c(c1)OCc1ccc(-c3ccncn3)cc1-2)C(N)=O |  | 19.9 |  | 
